Experimental data published in US7495116B2, “Phospholipid derivative” (NOF Corporation, priority 2002, dated 2009).

Test: Determination of salt tolerant effect (clouding point, evaluation as surfactant)
Type: physicochemical
Conditions: 1 weight % solution in 5 weight % aqueous sodium sulfate
Experimental: Clouding point of the polyoxyethylene pentaerythritol ether (average molecular weight: 2000)-mono-distearoylphosphadylethanolamine obtained in Synthesis Example 1 was measured for a 1 weight % solution in 5 weight % aqueous sodium sulfate. As a result of the measurement, the clouding point was not detectable even when the temperature was raised up to 80° C.
Clouding point of the monomethylpolyoxyethylenecarbamyl (molecular weight: 2000) distearoylphosphatidylethanolamine obtained in Comparative Synthesis Example 1 was measured in the same manner as in Example 3.

In the case of “Polyoxyethylene Pentaerythritol Ether (Average Molecular Weight: 2000)-mono-distearoylphosphadylethanolamine Succinate [Synthesis Example 1]”, the Clouding point is reported as > 80 °C.
